In PubChem BioAssay AID651702 (NMMLSC, 2012):
The list shows a part of the results, in another mix than the full data. Calls of active or inactive are those of the source.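 The calls were made as follows: active = inhibition above about 55% (limit read from the data); inconclusive = no clear call, values can overlap the other calls; inactive = the rest.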

test: LAMP-1 surface exposure blockers, TALL-104 cells – cell-based, flow cytometry, MLPCN library, primary screen (AID 651702); conditions: TALL-104 LAMP-1 surface exposure, at 10 µM, hits give high values, cells stimulated with thapsigargin and PMA

| Compound | inhibition |
| --- | --- |
| O=[N+]([O-])C1C(O)C(O)C([N+](=O)[O-])C(O)C1O (configuration not stated) | inactive: -7.2% |
| O=C(NC(Sc1ccncn1)C(Cl)(Cl)Cl)c1ccccc1 (configuration not stated) | inactive: -2.1% |
| Oc1ccccc1CNc1ccccn1 | inactive: 2.5% |
| Nc1cc(N)c2nonc2c1[N+](=O)[O-] | inactive: 2.4% |
| CC(C)CC(=O)NC(Sc1ccc(Cl)cc1)C(Cl)(Cl)Cl (configuration not stated) | inactive: -2.9% |
| CN1CCCC(OC(=O)C(c2ccccc2)c2ccccc2)C1 (configuration not stated) | inactive: 0.3% |
| Clc1ccc(Cl)c(NC2=NCC(CBr)S2)c1 (configuration not stated) | inactive: -3% |
| Cc1ccc(OP(=O)(Nc2nccs2)Oc2ccc(C)cc2)cc1 | inactive: -3.2% |
| COc1ccccc1OP(=O)(Nc1ccc(C)cn1)Oc1ccccc1OC | inactive: 2% |
| Cc1ccc(N/C(=N/P(=O)(N2CCOCC2)N2CCOCC2)N2CCOCC2)cc1 | inactive: -3.1% |
| CN(C(=O)Cc1ccc(Cl)c(Cl)c1)[C@H]1CCCC[C@H]1N1CCCC1 | inactive: 0.4% |
| NC(=O)c1cc([N+](=O)[O-])cc([N+](=O)[O-])c1N | inactive: -4.3% |
| Nc1cccc2ccc([As](=O)(O)O)cc12 | inactive: 2.6% |
| CCN(N=Nc1nonc1N)c1nonc1N | inactive: 0.4% |
| Cc1ccc(NP(=O)(Oc2ccccc2F)Oc2ccccc2F)nc1 | inactive: -12.3% |
| CN(C(=O)Cc1ccc(Cl)c(Cl)c1)[C@H]1CCCC[C@@H]1N1CCCC1 | inactive: -1.3% |
| Cc1cc(SC(NC(=O)c2ccc(F)cc2)C(Cl)(Cl)Cl)ncn1 (configuration not stated) | inactive: -0.2% |
| CCOP(=O)(Nc1ccccc1)OCC | inactive: -2.7% |
| O=P(Nc1nc2ccc(Cl)cc2s1)(c1ccccc1)c1ccccc1 | inactive: 1.5% |
| CN(C)P(=O)(N(C)C)n1c(Nc2ccccc2)nnc1-c1ccccc1 | inactive: -2.3% |
| CCCC1OP(N)(=O)OCC1CC (configuration not stated) | inactive: 8.7% |
| CC(=O)Nc1ccc([As](=O)(O)O)cc1 | inactive: 9.6% |
| O=C(O)c1ccccc1[As](=O)(O)O | inactive: -6% |
| O=C(O)CNc1ccc([As](=O)(O)O)cc1 | inactive: -2.9% |
| COC(=O)C1(C)COP(=O)(Nc2ccccc2)OC1 (configuration not stated) | inactive: -4.8% |
| O=[N+]([O-])c1cccc(NC2=NCC(CBr)S2)c1 (configuration not stated) | inactive: 2.8% |

| Compound | inhibition |
| --- | --- |
| O=[N+]([O-])c1ncn(CCn2ncnc2[N+](=O)[O-])n1 | inactive: -0.9% |
| CC(C)(C)C(=O)NC(Sc1ccncn1)C(Cl)(Cl)Cl (configuration not stated) | inactive: -0.8% |
| O=C(Nc1cc([As](=O)(O)O)ccc1O)c1ccccc1 | inactive: -6.4% |
| O=P1(N(CCCl)CCCl)OCCCS1 (configuration not stated) | inactive: -1.1% |
| CC1CCN(C(=O)Oc2c(Cl)cc(Cl)c3cccnc23)CC1 | inactive: -2.4% |
| c1cc(-c2nn[nH]n2)ccc1-c1nn[nH]n1 | inactive: 6.1% |
| CN(C)C(=O)OCCc1n(C)cc[n+]1C | inactive: 3.4% |
| CC(C)c1nc(Nc2ccccc2)n(P(=O)(N(C)C)N(C)C)n1 | inactive: 6.5% |
| CC(C)=N/N=C(\N)N[N+](=O)[O-] | inactive: -2.4% |
| CCN(/C(=N/P(=O)(N1CCOCC1)N1CCOCC1)N1CCOCC1)c1ccc(OC)cc1 | inactive: 1.9% |
| C[N+]1=C2C=CC=CC=C2SC12C([N+](=O)[O-])=CC([N+](=O)[O-])=C[C-]2[N+](=O)[O-] (configuration not stated) | active: 74.8% |
| Nc1ccc([As](=O)(O)c2ccc(N)cc2)cc1 | inactive: -7% |
| CCc1nc2c(n1)c1c(non1O)c1c2no[n+]1[O-] | inactive: 4.3% |
| O=[N+]([O-])c1cc([N+](=O)[O-])c(CCNc2ccccc2)c([N+](=O)[O-])c1 | inactive: -2.1% |
| Cc1ccc(NP(=O)(Oc2ccccc2)Oc2ccccc2)nc1 | inactive: -1.9% |
| O=[N+]([O-])c1cccc2n[nH]nc12 | inactive: 3.2% |
| CC(=O)N1C2C3N(C(C)=O)C1C1N(C(C)=O)C(C(N1C(C)=O)N3C(C)=O)N2C(C)=O | inactive: -0.8% |
| COc1ccc(C2=NCC(CBr)S2)cc1 (configuration not stated) | active: 94.1% |
| c1nnnn1CCn1cnnn1 | inactive: -2.6% |
| CC(C)C(=O)NC(Sc1ccccc1)C(Cl)(Cl)Cl (configuration not stated) | inactive: -3.2% |
| O=P(Nc1nccs1)(c1ccccc1)c1ccccc1 | inactive: -2.4% |
| O=C(OC1CN2CCC1CC2)c1cccc(Cl)c1 (configuration not stated) | inactive: 3.7% |
| C(Cc1nn[nH]n1)Cc1nn[nH]n1 | inactive: 0.3% |
| Nc1ccc([As](=O)(O)c2ccc([N+](=O)[O-])cc2)cc1 | inactive: 0.9% |
| O=[As](O)(c1ccccc1)c1ccc(O)cc1 | inactive: 0.8% |
| O=[N+]([O-])c1ccc(O)c(/C=N/Nc2ccc([N+](=O)[O-])cc2[N+](=O)[O-])c1 | inactive: 9.4% |

| Compound | inhibition |
| --- | --- |
| O=[N+]([O-])c1ncn(CCn2cnc([N+](=O)[O-])n2)n1 | inactive: -0.3% |
| CC(=O)NC(SC(=S)N(C)C)C(Cl)(Cl)Cl (configuration not stated) | inactive: 3.6% |
| C[C@H]1OP(=O)(Oc2ccccc2)[C@H](O)[C@H](O)[C@H]1N=[N+]=[N-] (some centres not stated) | inactive: 6.3% |
| O=P(Nc1nc2ccccc2s1)(c1ccccc1)c1ccccc1 | inactive: 5.3% |
| O=P(Nc1ccccn1)(c1ccc(Br)cc1)c1ccc(Br)cc1 | inactive: -0.7% |
| CN(C)C1(CNC(=O)c2ccc(Cl)c(S(N)(=O)=O)c2)CCCCC1 | inactive: -4.2% |
| COc1ccc(N)c([N+](=O)[O-])c1[N+](=O)[O-] | inactive: -1.5% |
| Nc1ccc(CCCCOc2ccccc2)cc1 | inactive: 1.3% |
| O=c1c2cc([N+](=O)[O-])ccc2[nH]c2c([N+](=O)[O-])cc([N+](=O)[O-])cc12 | active: 68.8% |
| CN(C)C(=O)Oc1noc2ccccc12 | inactive: -4.9% |
| CC(NC(=O)COC(=O)C(O)(c1ccccc1)c1ccccc1)c1ccccc1 (configuration not stated) | inactive: 0.3% |
| Cc1ccccc1OP(=O)(Nc1ccccn1)Oc1ccccc1C | inactive: 0.1% |
| CCC(=O)N1C2C3N(C(=O)CC)C1C1N(C(=O)CC)C(C(N1C(=O)CC)N3C(=O)CC)N2C(=O)CC | inactive: -0.4% |
| O=C(OC1CN2CCC1CC2)c1ccccc1 (configuration not stated) | inactive: -14.9% |
| Cc1ccc(OP(=O)(Nc2ccccn2)Oc2ccc(C)cc2)cc1 | inactive: -1.3% |
| CC(=O)NC(SC(=S)N(CC(C)C)CC(C)C)C(Cl)(Cl)Cl (configuration not stated) | inactive: -1.7% |
| COC(=O)c1cc2c(s1)N=C(c1ccccc1)N(C)P2(=O)N1CCOCC1 (configuration not stated) | inactive: 1% |
| O=P1(N(CCCl)CCCl)OCCC2CCCCN21 (configuration not stated) | inactive: 6.8% |
| Cc1ccc(NP(=O)(Oc2cccc(C)c2)Oc2cccc(C)c2)nc1 | inactive: 5.5% |
| c1ccc(-c2nn[nH]n2)c(-c2nn[nH]n2)c1 | inactive: -5.6% |
| CCNC(=S)/N=C(\N)N[N+](=O)[O-] | inactive: -2.7% |
| O=C(NC1CCS(=O)(=O)C1)NP(=S)(Oc1ccccc1)Oc1ccccc1 (configuration not stated) | inactive: 4.9% |
| CC(=O)Nc1ccc(Oc2c([N+](=O)[O-])cc([N+](=O)[O-])cc2[N+](=O)[O-])cc1 | inactive: -0.5% |
| CC(=O)Nc1ccc([As](=O)(O)O)c(O)c1 | inactive: 0.5% |
| C[C@H]1OP(=O)(Oc2ccccc2)C[C@@H]2O[C@@H]21 (some centres not stated) | inactive: -3.8% |
| C[C@@H]1C=CCP(=O)(Oc2ccccc2)O1 (some centres not stated) | inactive: -3.7% |

| Compound | inhibition |
| --- | --- |
| Cc1ccccc1CN(C)C(=O)COC(=O)C(O)(c1ccccc1)c1ccccc1 | inactive: -4.3% |
| COC(=O)C1(C)COP(=O)(NCc2ccccc2)OC1 (configuration not stated) | inactive: -1.5% |
| CC(=O)c1ccc(N2CC2c2ccncc2)cc1 (configuration not stated) | inactive: 11.6% |
| N#C/C(=C\c1ccc(N(CCBr)CCBr)cc1)C(N)=O | inactive: -5.2% |
| CC(C)(C)C(=O)NC(Sc1ccccc1)C(Cl)(Cl)Cl (configuration not stated) | inactive: -1.4% |
| CCc1cc(O)c([N+](=O)[O-])c(C)c1[N+](=O)[O-] | inactive: 6.4% |
| CCOc1ccc(C2=NCC(CBr)S2)cc1 (configuration not stated) | inactive: -0.1% |
| O=P1(Nc2nc3ccc(Cl)cc3s2)COc2ccccc2O1 (configuration not stated) | inactive: -1.9% |
| CCOP(=O)(Nc1cccc2ccccc12)OCC | inactive: 9% |
| COc1cc(C2NCCC3(OCCO3)C2(C)C)cc(OC)c1OC (configuration not stated) | inactive: 7.1% |
| Nc1cccc2c([As](=O)(O)O)cccc12 | inactive: -6.9% |
| Cc1ccc(NCCc2c([N+](=O)[O-])cc([N+](=O)[O-])cc2[N+](=O)[O-])cc1 | inactive: 23.6% |
| CCCOP(=S)(Nc1nc(N)cc(=O)[nH]1)OCCC | inactive: -5.1% |
| Cc1cccc(OCC(=O)OC2CN3CCC2CC3)c1 (configuration not stated) | inactive: -2.8% |
| O=[As](O)(c1cccc(O)c1)c1cccc(O)c1 | inactive: 0.7% |
| O=C(OC1CN2CCC1CC2)c1ccc(Cl)cc1 (configuration not stated) | inactive: 1.6% |
| CS(=O)(=O)c1ccc(Cl)c(NC(=O)COC(=O)C(O)(c2ccccc2)c2ccccc2)c1 | inactive: -2.2% |
| O=[As](O)(O)c1cccnc1 | inactive: 1.4% |
| COc1cc(C(=O)NCC2(N3CCOCC3)CCCCC2)cc(Cl)c1OC(C)C | inactive: -0.9% |
| CN(C(=O)Cc1ccccc1)[C@@H]1CC[C@]2(CCCO2)C[C@H]1N1CCCC1 | inactive: 3% |
| CCOP1(=S)c2c(C)nn(CCC#N)c2N=C(c2ccc(F)cc2)N1C (configuration not stated) | inactive: 1.3% |
| N#CCCN(C(=O)COC(=O)C(O)(c1ccccc1)c1ccccc1)c1ccc(F)cc1 | inactive: 3.9% |
| CN(C(=O)Cc1ccc(Cl)c(Cl)c1)[C@H]1CC[C@@]2(CCCO2)C[C@@H]1N1CCCC1 | inactive: -1.1% |
| O=[N+]([O-])c1ccc2c(c1)nnn2O | inactive: -0.7% |
